Assay results from patent US20230137927A1, “INTERFERON TAU AS ANTIVIRAL THERAPY” (priority 2020, published 2023).

Legend:
ZIKV (ZIKA/PRVAB59) = assay: Anti ZIKV CPE assay in Huh-7 cells
ZIKV strain PRVABC59 = assay: ZIKV plaque reduction assay in VERO cells; format: cell-based, Zika virus; conditions: 1 hr pre-incubation

With “IFN-β: IFN-β used as the positive control of the ZIKV assays” the “Average Activity(%)” value (ZIKV (ZIKA/PRVAB59); 0.03 IU/ml) was 1.85%, the “Average Activity(%)” value (ZIKV (ZIKA/PRVAB59); 0.13 IU/ml) was −6.80% and the “Average Activity(%)” value (ZIKV (ZIKA/PRVAB59); 0.64 IU/ml) was 6.46%. For the same substance, the “Average Activity(%)” value (ZIKV (ZIKA/PRVAB59); 3.2 IU/ml) was 27.59%, the “Average Activity(%)” value (ZIKV (ZIKA/PRVAB59); 16 IU/ml) was 86.73% and the “Average Activity(%)” value (ZIKV (ZIKA/PRVAB59); 80 IU/ml) was 106.71%. The “Average Activity(%)” value (ZIKV (ZIKA/PRVAB59); 400 IU/ml) was 106.29%, the “Average Activity(%)” value (ZIKV (ZIKA/PRVAB59); 2000 IU/ml) was 101.94% and the EC50 (ZIKV (ZIKA/PRVAB59); Huh-7 cells, positive control) was 5.39 IU/ml. The CC50 (Huh-7 cells) was >2000 IU/ml, the “Inhibition (%)” value (ZIKV strain PRVABC59; 0.16 IU/ml) was 21.43% and the “Inhibition (%)” value (ZIKV strain PRVABC59; 0.8 IU/ml) was 21.43%. The “Inhibition (%)” value (ZIKV strain PRVABC59; 4 IU/ml) was 33.93%, the “Inhibition (%)” value (ZIKV strain PRVABC59; 20 IU/ml) was 100% and the “Inhibition (%)” value (ZIKV strain PRVABC59; 100 IU/ml) was 100%.
